Chains of the proteins cited; added tags and fusions are not shown. Residues count along the entry.
UniProt C7C422, 29-270, looked up, species assumed: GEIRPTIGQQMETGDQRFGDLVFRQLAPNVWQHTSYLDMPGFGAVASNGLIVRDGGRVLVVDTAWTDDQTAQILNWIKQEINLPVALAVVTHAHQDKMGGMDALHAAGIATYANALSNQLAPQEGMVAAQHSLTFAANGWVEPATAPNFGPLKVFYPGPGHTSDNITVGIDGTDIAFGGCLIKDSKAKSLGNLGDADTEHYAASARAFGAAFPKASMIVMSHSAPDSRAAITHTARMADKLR

According to patent US10206937B2, “Boronic acid derivatives and therapeutic uses thereof” (Qpex Biopharma, Inc., priority 2014, dated 2019):

Experiments:
NDM-1 = NDM-1 (Klebsiella pneumoniae, UniProt C7C422); format: biochemical
VIM-1 = molecular target: T1, VIM-1 (Pseudomonas aeruginosa, UniProt A0A0F7KYQ8); format: biochemical
T1 construct: made in house; host or cells: ECM6711 strain carrying pUCP24-VIM-1 plasmid; culture supernatant used unpurified

EDTA [reference compound] showed a Ki (NDM-1; cleavage of biapenem (100 uM) by NDM-1, read-out: Ki, Biapenem) of 10 to 100 nM, a Ki (NDM-1; cleavage of imipenem (100 uM) by NDM-1, read-out: Ki, Imipenem) of 10 to 100 nM and a Ki (NDM-1; cleavage of meropenem (100 uM) by NDM-1, read-out: Ki, Meropenem) of 10 to 100 nM. It also gave a Ki (NDM-1; cleavage of tebipenem (100 uM) by NDM-1, read-out: Ki, Tebipenem) of 10 to 100 nM and an IC50 (VIM-1) of under 1000 nM.

Like-named read-outs stand apart in the source and are kept apart here.
